Data: ChEMBL document CHEMBL3085656, “A medicinal chemistry perspective for targeting histone H3 lysine-79 methyltransferase DOT1L” (J Med Chem, 2013)

Assay: Intrinsic clearance in human liver microsomes assessed per mg of protein
Assay type: ADME
Settings: read-out: CLH

Compound: CC(C)N(CCCNC(=O)Nc1ccc(C(C)(C)C)cc1)C[C@H]1O[C@@H](n2cnc3c(N)ncnc32)[C@H](O)[C@@H]1O
- microsomal CLint: 24 µL/min/mg
